The assay has as its target T1, human MerTK-human Fc fusion protein (human, UniProt Q12866 21-505).
T1 construct: range 21-505; Made in ExpiCHO-S cells; also called human MerTK-Fc protein; MerTK-Fc fusion protein; not shown: human IgG1 Fc as encoded by the pFUSE-hIgG1-Fc1 vector (InvivoGen)
T1 sequence (looked up): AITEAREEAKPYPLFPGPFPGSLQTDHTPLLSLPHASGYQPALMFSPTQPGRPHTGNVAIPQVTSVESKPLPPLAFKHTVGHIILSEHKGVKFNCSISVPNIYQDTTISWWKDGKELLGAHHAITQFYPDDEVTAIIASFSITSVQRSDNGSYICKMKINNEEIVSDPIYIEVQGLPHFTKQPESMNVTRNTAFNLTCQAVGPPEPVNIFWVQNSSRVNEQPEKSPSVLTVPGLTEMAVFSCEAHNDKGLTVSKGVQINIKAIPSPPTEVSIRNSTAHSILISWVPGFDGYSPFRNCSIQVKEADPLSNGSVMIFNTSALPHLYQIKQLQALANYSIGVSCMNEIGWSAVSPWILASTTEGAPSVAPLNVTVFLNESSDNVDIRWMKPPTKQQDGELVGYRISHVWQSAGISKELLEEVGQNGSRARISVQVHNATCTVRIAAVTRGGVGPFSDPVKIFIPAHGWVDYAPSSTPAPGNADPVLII
Description: bridging ELISA: misfolded IgL on Ni-NTA plate, antibody, then biotinylated MerTK-Fc and streptavidin-HRP. (In general: ELISA stands for enzyme-linked immunosorbent assay.)

B1: tA3-20_2A4_h1x (bispecific antibody, human IgG1, lambda, L234A L235A)
heavy 1: not shown
light 1: FMLTQPHSVSESPGKTVTISCTRSSGSIATNYVQWYQQRPGSSPTTVIYEDNQRPSGVPDRFSGSIDSSSNSASLTISGLKTEDEAVYHCQSYDSSNVVFGGGTKLTVLGQPKAAPSVTLFPPSSEELQANKATLVCLISDFYPGAVTVAWKADSSPVKAGVETTTPSKQSNNKYAASSYLSLTPEQWKSHRSYSCQVTHEGSTVEKTVAPTECS
heavy 2: not shown
light 2: DVVMTQTPLSLPVSLGDQASISCRSSQSLVHSTGNTYLHWYLQKPGQSPKLLIYKVSNRFSGVPDRFSGSGSGTYFTLKISRVEAEDLGVYFCSQSTHVPFTFGGGTKLEIKSSASTKGPSVFPLAPSSKSTSGGTAALGCLVKDYFPEPVTVSWNSGALTSGVHTFPAVLQSSGLYSLSSVVTVPSSSLGTQTYICNVNHKPSNTKVDKKVEPKSC
As for B1, the binding result is reported as “binds”.

The values are drawn from patent EP4786497A1 (Astellas Pharma Inc., dated 2026).
